We go through 1 compound from patent US20250129135A1, “Multi-Agonist and Use Thereof” (priority 2021, published 2025).

The assay concerns C57 BL/6J DIO mice. As to the kind of experiment: In vivo pharmacodynamics in high-fat diet induced obesity (DIO) mice. More on the design: species or system mouse. Particulars: Mean±SEM; for Weight change: Table 6-2; for LDL-C / TC (total cholesterol) / TG (plasma triglycerides): Table 7-2. A digest of the protocol: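 DIO mice (60 kcal% fat diet) dosed subcutaneously in 1×PBS, 5 ml/kg, every three days for 15 days. Daily body weight and food intake as % change from baseline; day 15 fasting glucose, plasma TC, LDL-C, TG, insulin and liver TG. Mean±SEM, one-way ANOVA with Dunnett's versus vehicle.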

On to `CC[C@H](C)[C@H](NC(=O)[C@H](Cc1ccccc1)NC(=O)[C@H](C)NC(=O)C(C)(C)NC(=O)[C@H](CCC(N)=O)NC(=O)[C@H](C)NC(=O)[C@H](CCCCNC(=O)COCCOCCNC(=O)COCCOCCNC(=O)CC[C@H](NC(=O)CCCCCCCCCCCCCCCCCCC(=O)O)C(=O)O)NC(=O)[C@H](CCCCN)NC(=O)[C@H](CC(=O)O)NC(=O)[C@H](CC(C)C)NC(=O)[C@H](Cc1ccccc1)NC(=O)[C@@H](NC(=O)[C@H](CO)NC(=O)[C@H](Cc1ccc(O)cc1)NC(=O)[C@H](CC(=O)O)NC(=O)[C@H](CO)NC(=O)[C@@H](NC(=O)[C@](C)(Cc1ccccc1F)NC(=O)[C@@H](NC(=O)CNC(=O)[C@H](CCC(N)=O)NC(=O)C(C)(C)NC(=O)[C@@H](N)Cc1ccc(O)cc1)[C@@H](C)O)[C@@H](C)O)[C@@H](C)CC)C(=O)N[C@@H](CCC(=O)O)C(=O)N[C@@H](Cc1ccc(O)cc1)C(=O)N[C@@H](CC(C)C)C(=O)N[C@@H](CC(C)C)C(=O)N[C@@H](CCC(=O)O)C(=O)N[C@H](C(=O)NCC(=O)N1CCC[C@H]1C(=O)N[C@@H](CO)C(=O)N[C@@H](CO)C(=O)NCC(=O)N[C@@H](C)C(=O)N1CCC[C@H]1C(=O)N1CCC[C@H]1C(=O)N1CCC[C@H]1C(=O)N[C@@H](CO)C(N)=O)[C@@H](C)O` [Compound 17], for which the Weight change (3 nmol/kg s.c. Q3D for 15 days) was −13.6 ± 0.90%. For the setting “10 nmol/kg s.c. Q3D for 15 days”, the Weight change was −22.7 ± 1.87%. Further, under “3 nmol/kg, Day 15”, the LDL-C stood at 0.43 ± 0.033 mM, the “TC (total cholesterol)” value came out at 3.85 ± 0.174 mM and the “TG (plasma triglycerides)” value turned out to be 0.82 ± 0.015 mM. Under “10 nmol/kg, Day 15”, the LDL-C is reported as 0.38 ± 0.024 mM, the “TC (total cholesterol)” value came to 3.19 ± 0.216 mM and the “TG (plasma triglycerides)” value is 0.64 ± 0.040 mM. In addition, for the setting “Table 8-2, 3 nmol/kg, Day 15”, the “Blood sugar (fasting blood glucose)” value is 141.1 ± 2.45 mg/dL and the “Insulin (blood)” value worked out at 37.5 ± 18.49 mIU/L.
